The target in one series is CYP3A4 (Homo sapiens, UniProt P08684). Put plainly: Cytochrome P450.
In series [1] the target is T1, pregnane X receptor (PXR) (Homo sapiens, UniProt O75469).
T1 sequence (O75469 1-434): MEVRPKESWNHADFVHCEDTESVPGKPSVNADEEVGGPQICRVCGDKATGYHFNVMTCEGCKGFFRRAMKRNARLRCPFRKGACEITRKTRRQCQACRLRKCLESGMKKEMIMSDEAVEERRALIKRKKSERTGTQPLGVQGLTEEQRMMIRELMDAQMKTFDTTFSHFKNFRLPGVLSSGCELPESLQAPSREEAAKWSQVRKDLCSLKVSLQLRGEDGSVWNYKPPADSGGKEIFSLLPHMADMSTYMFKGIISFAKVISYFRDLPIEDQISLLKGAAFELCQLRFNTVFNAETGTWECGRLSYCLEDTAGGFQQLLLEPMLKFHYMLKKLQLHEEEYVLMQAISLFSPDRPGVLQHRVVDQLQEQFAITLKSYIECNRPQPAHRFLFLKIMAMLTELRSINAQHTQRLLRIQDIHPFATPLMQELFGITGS
In kind it is cell-based.

By UniProt entry, the sequences of proteins in these tests, tags left out.
UniProt P08684, whole entry: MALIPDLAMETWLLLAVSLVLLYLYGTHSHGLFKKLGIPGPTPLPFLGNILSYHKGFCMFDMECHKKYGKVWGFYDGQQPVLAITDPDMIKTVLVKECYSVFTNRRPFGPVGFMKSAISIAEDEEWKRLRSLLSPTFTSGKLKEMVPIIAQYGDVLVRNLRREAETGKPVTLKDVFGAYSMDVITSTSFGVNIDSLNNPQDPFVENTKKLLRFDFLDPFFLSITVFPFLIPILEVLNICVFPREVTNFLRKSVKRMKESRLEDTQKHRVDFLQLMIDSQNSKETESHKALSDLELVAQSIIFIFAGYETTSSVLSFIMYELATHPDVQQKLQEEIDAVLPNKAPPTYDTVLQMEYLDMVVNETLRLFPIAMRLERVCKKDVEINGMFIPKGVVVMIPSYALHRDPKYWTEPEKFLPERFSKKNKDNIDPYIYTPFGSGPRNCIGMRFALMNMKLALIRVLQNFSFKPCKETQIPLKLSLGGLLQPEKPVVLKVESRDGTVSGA

Molecules are shown by their SMILES.

The term IC50 denotes the concentration needed to halve the response being measured. Read a high IC50 as lower potency. One may read the fold induction as the signal under treatment as a multiple of the control signal.

The compound `COc1cc2c(cc1O)CC[n+]1cc3c(OC)c(OC)ccc3cc1-2` [Jatrorrhizine] gave an IC50 on CYP3A4 of 28.1 µM. Also, in series [1], the fold induction at 24 h, 12.5 μg/mL was 1.48 ± 0.01; the fold induction at 24 h, 25 μg/mL was determined as 1.94 ± 0.04; the fold induction at 24 h, 50 μg/mL turned out to be 2.44 ± 0.05.
With `COc1ccc2c(c1O)-c1c(O)c(OC)cc3c1[C@H](C2)[N+](C)(C)CC3` [Magnoflorine], inhibition against CYP3A4 was half-maximal at 105 µM (IC50). In addition, in series [1], the fold induction at 24 h, 12.5 μg/mL was 1.01 ± 0.15; the fold induction at 24 h, 25 μg/mL was 1.16 ± 0.15; the fold induction at 24 h, 50 μg/mL worked out at 1.41 ± 0.12.
